## Membrane permeability of cyclic peptides

PAMPA is the parallel artificial membrane permeability assay, which has no cells and reads passive diffusion.
Permeability is in 10^-6 cm/s, converted from the database's log10 values; higher is more permeable.

structure (SMILES) | PAMPA (10^-6 cm/s)
CN1C(=O)[C@H](CC(N)=O)NC(=O)[C@H](CCCCN)NC(=O)[C@H](Cc2ccccc2)NC(=O)[C@H](Cc2ccc(O)cc2)NC(=O)[C@@H]1CO | 4.8
CN1C(=O)[C@H](CCCCN)NC(=O)[C@H](Cc2ccccc2)NC(=O)[C@H](Cc2ccc(O)cc2)NC(=O)[C@H](CO)NC(=O)[C@@H]1CC(N)=O | 5.4
CN1C(=O)[C@H](CO)NC(=O)[C@H](CC(N)=O)NC(=O)[C@H](CCCCN)NC(=O)[C@H](Cc2ccccc2)NC(=O)[C@@H]1Cc1ccc(O)cc1 | 5.2
CN1C(=O)[C@H](Cc2ccccc2)NC(=O)[C@H](Cc2ccc(O)cc2)NC(=O)[C@H](CO)NC(=O)[C@H](CC(N)=O)NC(=O)[C@@H]1CCCCN | 6
CN1C(=O)[C@H](Cc2ccc(O)cc2)NC(=O)[C@H](CO)NC(=O)[C@H](CC(N)=O)NC(=O)[C@H](CCCCN)NC(=O)[C@@H]1Cc1ccccc1 | 5.1

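Conditions beyond the assay type are not listed; see the original paper. Other peptides of the study may be missing here. Entries at the database's floor value (log10 P of -10) are not listed.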

Values of Lee et al. 2018, doi:10.1002/pep2.24063, as listed in CycPeptMPDB.